A selection: hits, their analogues and other compounds. The true share with any hit is near 2.1%.
PDI inh – inhibitors of human protein disulfide isomerase | P07237 | PDI insulin aggregation turbidity, A650, 90 min | inhibition, % at 10 µM | actives 0.052% (n = 350,000) | AID 588391;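 active = mean inhibition across replicates of 30% or more, whatever share of single replicates reach that level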
Rev-erbA mod – modulates human Rev-erb alpha binding to DNA; P20393; Rev-erbα–FITC-DNA binding, fluorescence polarization, 90 min; activity, % at 10 µM; actives 0.79% (n = 370,000);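 active = activity above about 14%, limit read from the data; passing the limit was not always enough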;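 note: 0% = DMSO wells with 35 nM protein and 100% = DMSO wells with 750 nM protein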
INS-1E GSIS act – GLuc luminescence reporter in INS-1E cells, primary screen for activators of glucose-dependent secretion of insulin; activation, % at 16.6 µM; INS-1E GLuc reporter insulin secretion, 2-3 h; actives 0.61% (n = 370,000);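 active = lowest replicate activation of at least 40%, so every replicate reaches that level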;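 note: 0% = median of neutral control wells and 100% = median of IBMX positive control wells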
SMARCA2 activ – activators of SMARCA2 function. MG213 cells, MMTV-luciferase reporter, dexamethasone, overnight. AID 652017. activation, % at 9.1 µM. actives 1% (n = 370,000); in the data active = activation above about 7.8%;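 note: 0% = vehicle wells and 100% = reference activator wells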
ERp5 inh – ERp5 (human) disulfide isomerase inhibition; Q15084; ERp5 insulin aggregation, absorbance 650 nm, 90 min; inhibition, % at 9.99 µM; actives 0.05% (n = 350,000); AID 651711;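 active = mean replicate inhibition above about 25%, with every replicate also reaching it, limit read from the data, passing the limit was not always enough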
UUG fidelity – modulators of yeast start codon fidelity, primary screen, whole organism, S. cerevisiae, single point, plate reader; S. cerevisiae UUG-firefly luciferase reporter, luminescence/redox ratio; activity score, % at 18.7 µM; actives 0.13% (n = 350,000); AID 602363, 2012;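 active = replicate mean at a twofold rise or more, about +100% in these data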;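 also: firefly luciferase made from a UUG start codon reports start codon fidelity; reporter light over untreated wells divided by growth signal over untreated wells; some hits fall short of that in this replicate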
Numbers without * were called inactive; nt = not tested or not shown.

Abbreviations – A = PDI inh; B = Rev-erbA mod; C = INS-1E GSIS act; D = SMARCA2 activ; E = ERp5 inh; F = UUG fidelity
1: Cc1ccccc1CN1C(=O)CN(S(C)(=O)=O)CC1(C)C(=O)NCc1ccccc1 (stereo not drawn)
  A: nt	B: -3.6	C: 5.7	D: -1.1	E: 2.2	F: nt
2: CC1(C(=O)NCc2ccccc2)CN(S(C)(=O)=O)CC(=O)N1C1CC1 (stereo not drawn)
  A: nt	B: 2.7	C: 64.6*	D: -2.7	E: 3.7	F: nt
3: CCOc1ccc(NC(=O)COC(=O)Cn2nc(C)c([N+](=O)[O-])c2C)cc1OCC
  A: 3.5	B: -1.6	C: 48.8	D: -2.8	E: nt	F: -6.0
4: CCOc1ccc(NC(=O)COC(=O)Cn2cnnn2)cc1OCC
  A: 17.0	B: 0.5	C: 43.8*	D: nt	E: 3.0	F: -2.7
5: O=c1cc(CN2CCCCCC2)nc2sccn12
  A: 5.6	B: -3.4	C: 6.7	D: -0.3	E: -3.2	F: nt
6: Cc1cc(=O)n2ccsc2n1
  A: -2.8	B: -2.8	C: 47.4*	D: 1.1	E: 5.9	F: -16.2
7: CC(C)Nc1nc(Nc2ccc(C(N)=O)cc2)c2sccc2n1
  A: 2.6	B: -4.2	C: 70.0*	D: -1.1	E: -2.5	F: 0.1
8: COc1ccc(NC(=O)CCCn2c(=O)oc3ccccc32)cc1Cl
  A: -1.4	B: -3.0	C: -1.7	D: 7.8*	E: 5.8	F: nt
9: Cc1ccc(-c2[nH]ncc2/C=N/n2c(COc3ccccc3C)nc3ccccc3c2=O)cc1
  A: -1.6	B: -1.2	C: 197.1*	D: 2.0	E: nt	F: -2.9
10: CC(=O)Nc1ccc(-c2csc(NC(=O)CCCc3cccs3)n2)cc1
  A: 14.4	B: -5.2	C: -0.6	D: -1.6	E: 1.7	F: 2.9
11: Cc1ccc(-c2csc(NC(=O)CCCc3cccs3)n2)cc1
  A: -4.8	B: -4.9	C: 98.2*	D: -1.2	E: nt	F: nt
12: CCCn1nc(CC(=O)OCC)c2ccccc2c1=O
  A: -6.0	B: -2.7	C: nt	D: -2.5	E: nt	F: -20.5
13: CCOC(=O)Cc1nn(Cc2ccccc2)c(=O)c2ccccc12
  A: -4.7	B: 1.1	C: 88.7*	D: 4.6	E: 5.6	F: nt
14: CCN(C(=O)COC(=O)CNC(=O)C12CC3CC(CC(C3)C1)C2)C1CCS(=O)(=O)C1 (stereo not drawn)
  A: 10.6	B: 4.9	C: -3.5	D: -1.0	E: 1.3	F: 1.7
15: CCN(C(=O)C12CC3CC(CC(C3)C1)C2)C1CCS(=O)(=O)C1 (stereo not drawn)
  A: -4.3	B: -1.7	C: 59.4*	D: -1.2	E: -6.7	F: -4.5

Shown in transposed form: part of the list above.
[4] CCOc1ccc(NC(=O)COC(=O)Cn2cnnn2)cc1OCC
[13] CCOC(=O)Cc1nn(Cc2ccccc2)c(=O)c2ccccc12
[14] CCN(C(=O)COC(=O)CNC(=O)C12CC3CC(CC(C3)C1)C2)C1CCS(=O)(=O)C1 (stereo not drawn)

| entry no. | 4 | 13 | 14 |
| --- | --- | --- | --- |
| PDI inh | 17.0 | -4.7 | 10.6 |
| Rev-erbA mod | 0.5 | 1.1 | 4.9 |
| INS-1E GSIS act | 43.8* | 88.7* | -3.5 |
| SMARCA2 activ | nt | 4.6 | -1.0 |
| ERp5 inh | 3.0 | 5.6 | 1.3 |
| UUG fidelity | -2.7 | nt | 1.7 |

Next section:
Abbreviations – A = PDI inh; B = Rev-erbA mod; C = INS-1E GSIS act; D = SMARCA2 activ; E = ERp5 inh; F = UUG fidelity
16: COc1ccc([N+](=O)[O-])c2c(=O)ccoc12
  A: 5.0	B: 0.5	C: 41.0*	D: 1.0	E: nt	F: nt
17: COc1ccc(NC(=O)N(C)C[C@@H]2Oc3ccc(NC(=O)NC4CCCCC4)cc3C(=O)N([C@H](C)CO)C[C@H]2C)cc1
  A: nt	B: nt	C: -3.6	D: nt	E: -4.0	F: -1.2
18: COc1cccc(-n2c(C)nnc2SCC(=O)Nc2ccccc2N2CCOCC2)c1
  A: -3.4	B: -8.6	C: nt	D: 7.9*	E: nt	F: -22.2
19: O=C(C[C@@H]1C=C[C@@H](NC(=O)c2ccc(F)cc2)[C@@H](CO)O1)NCc1ccncn1
  A: nt	B: nt	C: -2.3	D: nt	E: -0.2	F: -10.5
20: O=C(Cc1ccc(NC(=O)C2CCCN(C(=O)C3CC3)C2)cc1)Nc1cccc(C(=O)N2CCCCC2)c1 (stereo not drawn)
  A: -2.6	B: 3.5	C: nt	D: -1.4	E: 32.1*	F: 4.1
21: Nc1nc(SCc2nc3scc(-c4ccccc4)c3c(=O)[nH]2)n[nH]1
  A: -6.6	B: -2.2	C: 55.3*	D: 0.3	E: 2.7	F: -14.9
22: COc1ccccc1CNC(=O)CCNS(=O)(=O)c1ccc2[nH]c(=O)oc2c1
  A: -1.3	B: 2.6	C: 53.0*	D: 1.8	E: 1.1	F: -14.6
23: O=C(O)c1ccccc1/C=N/NC(=S)NC1CCCCC1
  A: -0.6	B: -2.8	C: 75.5*	D: -3.2	E: -5.2	F: -31.9
24: O=C(O)c1ccccc1/C=N/NC(=O)C1CCCC1
  A: 9.0	B: -1.7	C: 24.8	D: 7.9*	E: -4.3	F: -20.5
25: O=C(O)c1ccccc1/C=N/NC(=O)C1CCCCC1
  A: 2.2	B: 6.2	C: -5.4	D: 0.7	E: 5.1	F: -27.3
26: Cc1ccc(S(=O)(=O)Nc2ccc3c(c2)C(=O)N([C@@H](C)CO)C[C@H](C)[C@@H](CN(C)C(=O)NC(C)C)OCCCC[C@@H](C)O3)cc1
  A: nt	B: nt	C: -19.8	D: nt	E: -0.9	F: nt
27: CCOC(=O)/C(=N/Nc1ccccc1)c1csc(Nc2ccccc2)n1
  A: -1.4	B: 8.7	C: 6.3	D: -4.7	E: nt	F: -17.4
28: CCOC(=O)/C(=N\Nc1ccc(OC)cc1)c1csc(Nc2ccccc2)n1
  A: -0.2	B: -1.0	C: 11.3	D: 7.8*	E: -2.5	F: nt
29: COCC(=O)Nc1ccc2c(c1)OC[C@@H](C)N(CC1CC1)C[C@@H](C)[C@@H](OC)CN(C)C2=O
  A: nt	B: nt	C: 0.6	D: nt	E: 17.9	F: nt
30: CCC(=O)N1CC[C@@H]2[C@@H](CO)Nc3ccc(-c4ccc(OC)cc4)cc3[C@@H]21
  A: nt	B: nt	C: 35.0	D: nt	E: nt	F: -10.2
31: Cc1ccc(N/C=C/c2onc(C)c2[N+](=O)[O-])cc1
  A: -0.3	B: 0.6	C: -19.2	D: 3.1	E: -1.0	F: -17.0
32: COc1cccc(N/C=C/c2onc(C)c2[N+](=O)[O-])c1
  A: 6.0	B: -8.7	C: 52.1*	D: -0.5	E: nt	F: -27.8
33: CC(=O)N[C@H]1CC[C@@H](CCNC(=O)C2CCCC2)O[C@@H]1CO
  A: nt	B: nt	C: 5.4	D: nt	E: -2.7	F: -3.4
34: NC(CCc1ccccc1)c1csc(Nc2ccc(C(F)(F)F)cn2)n1 (stereo not drawn)
  A: -1.6	B: 3.0	C: 307.7*	D: -3.8	E: 2.2	F: 36.3
35: NC(c1csc(Nc2ccc(C(F)(F)F)cn2)n1)C1CCCCC1 (stereo not drawn)
  A: 14.4	B: 6.3	C: 533.3*	D: -8.1	E: -3.3	F: -18.5
36: CO[C@H]1CN(C)C(=O)c2cc(NC(=O)C3CC3)ccc2OC[C@H](C)N(Cc2ccncc2)C[C@@H]1C
  A: nt	B: nt	C: 2.5	D: nt	E: -3.0	F: 9.0
37: CN(C)c1ccc2c(c1)[C@@H]1C[C@@H](CC(=O)NC3CCCC3)O[C@H](CO)[C@@H]1O2
  A: nt	B: nt	C: -8.0	D: nt	E: -1.1	F: -13.3
38: CCS(=O)(=O)Nc1ccc2c(c1)C(=O)N(C)[C@H]1CC[C@@H](CC(=O)NC)O[C@H]1CO2
  A: nt	B: nt	C: 4.5	D: nt	E: -1.0	F: -7.1
39: Cc1cccnc1NC(=O)c1ccc(S(=O)(=O)N2CCCCC2)cc1
  A: -1.9	B: 1.8	C: 41.3*	D: -2.6	E: 2.4	F: nt
40: Cc1cccnc1NC(=O)c1cccc(S(=O)(=O)N2CCCC2)c1
  A: -9.5	B: 0.2	C: 8.9	D: -0.1	E: 0.5	F: -16.5
41: COc1ccc(S(=O)(=O)Nc2ccc3c(c2)C(=O)N([C@H](C)CO)C[C@H](C)[C@@H](CN(C)CC2CCCCC2)OCCCC[C@@H](C)O3)cc1
  A: nt	B: nt	C: 1.1	D: nt	E: nt	F: 11.9
42: COC(=O)c1ccc2nc(-c3ccc(C)cc3)c(Cc3cccc(F)c3)n2c1
  A: nt	B: -0.6	C: -5.1	D: 7.9*	E: -3.1	F: nt
43: COc1ccc(Nc2nc(-c3ccc(OC)cc3)c(CCC(=O)O)s2)cc1
  A: 6.0	B: 7.5	C: -1.6	D: -3.8	E: 4.5	F: nt
44: COC(=O)CCc1sc(Nc2ccccc2)nc1-c1ccc(OC)cc1
  A: -42.5	B: -2.1	C: -23.2	D: 9.7*	E: nt	F: -30.2
45: CCC(=O)Nc1ccc2c(c1)C(=O)N(C)C[C@@H](OC)[C@H](C)CN(C(=O)Nc1ccccc1F)[C@H](C)CO2
  A: nt	B: nt	C: 0.1	D: nt	E: 3.3	F: nt
46: COc1ccc(CCN2C(=O)CC(Cc3ccc(Br)cc3)C2=O)cc1OC (stereo not drawn)
  A: 0.7	B: 2.0	C: -19.9	D: -1.4	E: nt	F: nt
47: COc1ccc(CCN2C(=O)CC(Cc3ccccc3)C2=O)cc1OC (stereo not drawn)
  A: -2.8	B: 1.2	C: 70.2*	D: -0.4	E: 1.2	F: nt
48: C=CCNc1ncnc2c1ncn2[C@H]1CN(Cc2cc(OC)c(OC)c(OC)c2)C[C@@H](CO)O1
  A: 4.5	B: 2.0	C: 41.7*	D: -3.8	E: -6.6	F: nt

Bioassay records from PubChem.
